## AlphaSeq binding of Ab-14 heavy chain variants to a spike HR2 peptide

The target is the same throughout: PDVDLGDISGINAS, from the HR2 region of SARS-CoV-2 spike.

Each scFv is VH, the linker GGGGSGGGGSGGGGS, VL, as in the parent Ab-14, and differs from it in the CDRs of the heavy chain only.
VH: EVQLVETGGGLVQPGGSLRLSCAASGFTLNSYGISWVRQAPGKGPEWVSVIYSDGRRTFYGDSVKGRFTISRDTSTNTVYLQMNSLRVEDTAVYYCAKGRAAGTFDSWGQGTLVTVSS
VL: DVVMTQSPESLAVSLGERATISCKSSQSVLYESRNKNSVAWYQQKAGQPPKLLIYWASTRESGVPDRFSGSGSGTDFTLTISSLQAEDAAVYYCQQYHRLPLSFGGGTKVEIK

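Phage display of a naive human antibody library on the peptide gave the parent. Designed CDR sequences, proposed from the first random library and measured here. Group labels follow the data file (Ctrl: baseline library sampled from a position-specific scoring matrix, with some repeated check sequences; Rand: our label for a block that the file lists under HC and that is probably the random mutants of the ten best first-round binders; En: ensemble of fine-tuned language models; GP: Gaussian process model; GPLM: also part of the Gaussian process libraries; HC: hill climbing; Gen: genetic algorithm; Gibbs: Gibbs sampling; a sequence that several methods proposed may carry one label only). The assay is AlphaSeq: two haploid yeast populations carry antibody and antigen on their surface. Binding brings cells together so that they mate, and sequencing counts the barcode pairs among the diploids. Each replicate has its own calibration line, from reference interactions of the BCL2 family. Each pool was mated in six replicate cultures.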

The parent's heavy chain CDRs are GFTLNSYGIS, VIYSDGRRTFYGDSVK, GRAAGTFDS; each variant's own CDRs replace them letter for letter.
Kd is apparent (estimated from mating counts) and averaged on the log scale over replicates with a signal. Smaller is tighter.
"not detected" marks a missing value. The strain was present, yet no cells mated with the target were sequenced in any replicate, which points to weak or no binding.
The authors averaged sequences with at least three values out of six and counted those with two or fewer as poor binders.

apparent Kd | replicates with signal | empty controls | CDR-H1 | CDR-H2 | CDR-H3 | group
71 pM | 5/6 | 0/18 | GFGLDEYGIS | VIYADGFRTFYADSVK | GENAGTFDM | En_HC
not detected | 0/6 | 0/18 | GFSLEEYGIS | VIYADGKRDVYADSVK | GSGSGWFDI | En_Gibbs
4.6 nM | 6/6 | 1/18 | GFSLNSYGIS | VIYSDGRRTFYSDQVK | GEAAGTFDS | GPLM_Gen
190 pM | 6/6 | 0/18 | GFTLDEYGIS | VIYADGQRTAYIDDVK | GQMGGNGYV | En_Gibbs
5.5 nM | 6/6 | 0/18 | GFELNNYGIS | VIYSDGRRTFYSDSVK | GQAAGTFDS | GP_Gen
1.4 nM | 6/6 | 0/18 | GFDLNEYGIS | VIYADGVRTAYSDSVK | GENAGTFDM | En_Gen
300 pM | 6/6 | 0/18 | GFDLNEYGIS | VIYADGMRTAYSDSVK | GANAGTFDI | En_Gen
not detected | 0/6 | 1/18 | GFTRNTYGIS | VIYSDGLRTAYGDSVK | GDAAVTFDS | Ctrl
not detected | 0/6 | 0/18 | GFDLNSYGIS | VIYSDGRRTFYGDKVK | GREAGTFDT | GP_Gibbs
110 nM | 4/6 | 1/18 | GFVLNDYGIS | VIYSDGRRTFYGDSVK | GRHAGTFDS | GPLM_HC
8.4 nM | 4/6 | 0/18 | LFTLNEYGIS | VIYSDGRRTFYHDSVK | GRTAGTFDS | GP_HC
not detected | 0/6 | 0/18 | GRTLNSYGIS | VIYADGERTFYGDSNK | GRAAGTFDS | Ctrl
350 pM | 6/6 | 0/18 | GFDLNEYGIS | VIYADGRRTFYADSVK | GNNAGTFDQ | En_HC
7.5 nM | 6/6 | 0/18 | GFSLNSYGIS | VIYSDGRRTFYQDSVK | GRTAGTFDV | GP_Gibbs
160 pM | 6/6 | 1/18 | GFDLNEYGIS | VIYADGKRTFYIDSVK | GTNAGTFDV | En_HC
not detected | 0/6 | 0/18 | GFDLDEYGIS | VIYADGVRQAYIDSVK | GNWSGTMMY | En_Gibbs
3.8 nM | 9/12 | 0/36 | GFQLNEYGIS | VIYSDGRRTFYGDSVK | GRAAGTFDS | Ctrl+GPLM_Gibbs
670 pM | 6/6 | 0/18 | GFDLDEYGIS | VIYADGMRTYYADSVK | GENAGTFDT | En_Gen
340 pM | 6/6 | 0/18 | GFDLNEYGIS | VIYADGKRTAYDDSVK | GQVAGTFDS | En_HC
920 pM | 6/6 | 0/18 | GFTLNDYGIS | VIYSDGRRTFYADSVK | GRAAGTFDT | GPLM_HC
710 pM | 6/6 | 0/18 | GFDLNEYGIS | VIYADGSRTAYSDSVK | GEVAGTFDI | En_Gen
230 pM | 6/6 | 0/18 | GFDIDEYGIS | VIYADGRRTFYADSVK | GTNAGTFDL | En_HC
110 nM | 4/6 | 0/18 | GFHLNEYGIS | VIYSDGRRTFYGDSVK | GQAAGTFDS | GP_Gen
390 pM | 6/6 | 0/18 | GFDLNEYGIS | VIYADGRRTAYANDVK | GEVAGTFDV | En_Gen
2.3 nM | 6/6 | 0/18 | GFSLNDYGIS | VIYSDGRRQFYGDSVK | GRAAGTFDS | GP_HC
5.7 nM | 6/6 | 0/18 | GFTLNDYGIS | VIYSDGRRTMYIDSVK | GLAAGTFDS | GPLM_HC
120 nM | 1/6 | 0/18 | GFTLNDYGIG | VIYSDTRRTQYIDSVK | GRAAGTENS | Rand
not detected | 0/6 | 0/18 | GFNLESYGIS | VIYADGKRSSVSDSVK | GQLGNAFDM | En_Gibbs
82 nM | 1/6 | 0/18 | GYDLVEYGIS | VIYADGQRTAYADDVK | GNHGGIIDV | En_Gibbs
4.0 nM | 6/6 | 0/18 | GTDLEEYGIS | VIYADGRRAAYAQNVK | GFVGINVTD | En_Gibbs
30 nM | 6/6 | 0/18 | GFTLDSYGIS | VIYADGRRTFYGDRVK | GRAAGTFDS | GP_Gibbs
800 pM | 3/6 | 0/18 | GFDLNEYGIS | VIYADGKRTAYADSVK | GNNAGTFDI | En_Gen
310 pM | 6/6 | 0/18 | GFDLNEYGIS | VIYADGRRSYYADSVK | GQLAGTFDS | En_HC
1.2 nM | 12/12 | 1/36 | GFTLNEYGIS | VIYSDGRRTFYADSVK | GRAAGTFDS | Ctrl+GPLM_Gen
not detected | 0/6 | 0/18 | GFDVEEYGIS | VIYADGRRSSYSQSVK | GVYSGTIYV | En_Gibbs
640 pM | 6/6 | 1/18 | GFTLNEYGIS | VIYSDGRRTFYSDAVK | GRIAGTFDS | GP_HC
not detected | 0/6 | 0/18 | GFTLNSYGIS | VIYSDGRRTFYGDSVK | GRLAGTFPS | Ctrl
85 nM | 1/6 | 0/18 | GFTLNSYGIS | VIYSDGKRTFYGDSVK | GRVAGTFDT | GPLM_Gen
210 pM | 6/6 | 0/18 | GFDLDEYGIS | VIYADGVRTAYSDSVK | GEVAGTFDV | En_Gen
330 nM | 5/6 | 0/18 | GFQLNSYGIS | VIYSDGRRTFYVDSVK | GEAAGTFDS | GP_Gibbs
110 nM | 4/6 | 1/18 | KFNLNSYGIS | VIYSDGRRTFYGDSVK | GREAGTFDS | GP_Gen
not detected | 0/6 | 1/18 | QFTLNSYGIS | VIYSDGRRCFYGDEVK | GRAAGTFDS | Ctrl
220 pM | 6/6 | 0/18 | GFDLDEYGIS | VIYADGRRTFYADSVK | GTLAGTFDA | En_HC
not detected | 0/6 | 0/18 | GFTLNSYGIS | VIYSDGRRTFYGDSVK | GQAMGTFDS | Ctrl
67 nM | 2/6 | 0/18 | LFTLNSYGIS | VIYADGRRTFYGDSVK | GRIAGTFDI | Ctrl
480 pM | 6/6 | 0/18 | GFDLDEYGIS | VIYADGKRTAYSDSVK | GQNAGTFDL | En_Gen
6.1 nM | 6/6 | 0/18 | GFDLNEYGIS | VIYADGMRTYYADSVK | GEVAGTFDQ | En_Gen
400 pM | 6/6 | 1/18 | GFDLNEYGIS | VIYADGMRTFYADSVK | GETAGTFDI | En_Gen
500 pM | 6/6 | 0/18 | GFDLEEYGIS | VIYADGMRTAYADSVK | GNVAGTFDQ | En_Gen
not detected | 0/6 | 0/18 | GYDIQDYGIS | VIYADGVRVAYHDSVK | GQTAGFFLL | En_Gibbs
7.7 nM | 6/6 | 1/18 | GFDLNSYGIS | VIYSDGRRTFYCDSVK | GRNAGTFDS | GP_Gen
380 pM | 6/6 | 0/18 | GFDINEYGIS | VIYADGKRTAYADSVK | GNVAGTFDV | En_Gen
66 nM | 6/6 | 0/18 | GFTLNSYGIS | VIYSDGRRTFYQDSVK | GRVAGTFDS | GPLM_Gen
not detected | 0/6 | 0/18 | GFDLDEYGIS | VIYADGTRSGYAANVK | GEAAGITMF | En_Gibbs
not detected | 0/6 | 0/18 | GFTINSYGIS | VIYSDGRRTFYGDAVK | GRADGTFDS | Ctrl
not detected | 0/6 | 0/18 | GFDLGEYGIS | VIYADGRRKGYSDAVK | GINVIGKTV | En_Gibbs
470 pM | 6/6 | 0/18 | GFDLNEYGIS | VIYADGRRTFYSDSVK | GQTAGTFDL | En_HC
3.6 nM | 6/6 | 0/18 | GFDLNEYGIS | VIYADGRRTFYSDSVK | GTIGGTFDI | En_HC
not detected | 0/6 | 0/18 | GFTLNSYGIS | VDYSDGRRTFYKGSVK | GRAAGTIDL | Ctrl
2.2 nM | 4/6 | 0/18 | GFTLNSYGIS | VIYSDGRRTSYGDSVK | GEAAGTFDS | Ctrl
1.6 nM | 6/6 | 0/18 | GFDLNEYGIS | VIYADGKRTQYIDSVK | GEQAGTFDV | En_HC
180 pM | 6/6 | 0/18 | GFDLNEYGIS | VIYADGMRTAYADSVK | GNTAGTFDM | En_Gen

The opening 6 entries, copied out:

CDR-H1 | CDR-H2 | CDR-H3 | group | apparent Kd | replicates with signal | empty controls
GFGLDEYGIS | VIYADGFRTFYADSVK | GENAGTFDM | En_HC | 71 pM | 5/6 | 0/18
GFSLEEYGIS | VIYADGKRDVYADSVK | GSGSGWFDI | En_Gibbs | not detected | 0/6 | 0/18
GFSLNSYGIS | VIYSDGRRTFYSDQVK | GEAAGTFDS | GPLM_Gen | 4.6 nM | 6/6 | 1/18
GFTLDEYGIS | VIYADGQRTAYIDDVK | GQMGGNGYV | En_Gibbs | 190 pM | 6/6 | 0/18
GFELNNYGIS | VIYSDGRRTFYSDSVK | GQAAGTFDS | GP_Gen | 5.5 nM | 6/6 | 0/18
GFDLNEYGIS | VIYADGVRTAYSDSVK | GENAGTFDM | En_Gen | 1.4 nM | 6/6 | 0/18

The parent sequence was in this pool as ten entries: three were never detected, three once, and four in most replicates, with averages from 2.2 nM to 240 nM.
A sequence that the file lists under several names has all its replicates pooled.
Background: pairings of all heavy chain designs with three empty control strains gave a value in 1% of cases (median 120 nM, 5th percentile 7.0 nM). Values in that range, when seen in few replicates, are hard to tell from nonspecific mating. Also given: how often the same scFv was detected with the empty control strains.
A sequence measured in both rounds can read differently, since the two assays cover different ranges.

The measurements come from Li et al. 2023 (doi:10.1038/s41467-023-39022-2) through the FLAb antibody collection.